Results on one compound are retold here after patent US20250074890A1, “CYANOPYRIDINE AND CYANOPYRIMIDINE BCL6 DEGRADERS” (DANA-FARBER CANCER INSTITUTE, INC., priority 2021, published 2025).

The experiment relates to Su-DHL-4 cells. Description: CellTiter-Glo cell proliferation, BCL6 degrader with EZH2 inhibitors. It counts as cell-based. The note with it: EZH2 inhibitor at 480 nM added to BCL6 degrader (compound 1), 60% growth inhibition. How it is done:
Enhancer of zeste homolog 2 (EZH2) is a member of the polycomb repressive complex 2 (PRC2) that methylates histone 3 lysine 27, a mark that is associated with gene repression.
To ensure HiBiT signal decrease was due to BCL6 degradation and not from dying cells, CellTiter-Glo® (CTG, Promega™) was performed on the same number of cells that were treated for 24 hours with BCL6 degraders. To study the anti-proliferative effects of BCL6 degraders and its synergistic effect with EZH2 inhibitors, Su-DHL-4 and other DLBCL cells were treated with the compounds at DC99, DC75, DC50, or 1 μM followed by 5 days of culture, at which point CTG values and/or Caspase3/7 activities were measured as percent DMSO treated.
Background: Cellular ATP, detected with luciferase, serves as a proxy for viable cell number.

On to `CCN(c1cc(-c2ccc(CN3CCOCC3)cc2)cc(C(=O)NCc2c(C)cc(C)[nH]c2=O)c1C)C1CCOCC1` [Taz, Tazemetostat, reference compound], for which the “reduction of BCL6 degrader dose requirement to achieve GI60” value is listed as “around 4.3 fold”.
